Measured values: article PMC3565011 (Xenobiotica; the fate of foreign compounds in biological …, 2011)
Marks after values point to notes of the source that are not given here.

Sequences of proteins named here, by UniProt entry; tags and fusion partners are left off.
UniProt P08684, whole entry: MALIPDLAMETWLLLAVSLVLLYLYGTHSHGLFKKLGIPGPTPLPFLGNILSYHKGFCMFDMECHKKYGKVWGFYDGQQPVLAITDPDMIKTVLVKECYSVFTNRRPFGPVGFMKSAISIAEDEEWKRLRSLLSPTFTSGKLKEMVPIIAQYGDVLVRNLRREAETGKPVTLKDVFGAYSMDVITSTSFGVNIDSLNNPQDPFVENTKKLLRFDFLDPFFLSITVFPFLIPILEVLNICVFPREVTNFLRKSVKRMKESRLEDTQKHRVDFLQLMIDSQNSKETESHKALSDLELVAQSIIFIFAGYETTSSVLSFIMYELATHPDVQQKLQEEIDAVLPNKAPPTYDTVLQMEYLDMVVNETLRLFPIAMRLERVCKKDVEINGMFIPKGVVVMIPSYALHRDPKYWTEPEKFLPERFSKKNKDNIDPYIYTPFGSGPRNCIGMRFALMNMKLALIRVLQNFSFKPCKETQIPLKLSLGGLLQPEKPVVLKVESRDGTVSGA

Molecular target: CYP3A4 (Homo sapiens, UniProt P08684)
Test: Midazolam 1'-hydroxylation
Type: in vitro ADME
Settings: for % inhibition (10 µM) of CYP3A4: average of triplicates ± S.D.; for IC50: read-out: IC50 CYP3A4

Which results are given for “23-O-acetylshengmanol-3-α-L-arabinopyranoside (23R) [Compound 2]”?
% inhibition (10 µM) of CYP3A4: 81.6±0.9 ^b %; IC50: 2300 ± 200 nM

How did the “% inhibition (10 µM) of CYP3A4” value turn out when “23-O-acetylshengmanol-3-β-D-xylopyranoside [Compound 12]” was run?
The value was 80.7±0.6%.

And the IC50?
The IC50 was 2700 ± 200 nM.

Cimicifugoside M [Compound 18] was tested. Which “% inhibition (10 µM) of CYP3A4” value did it give?
Its value is 65.8±0.5%.

And the IC50?
Its IC50 is 4300 ± 300 nM.
